{
  "sequences": {"note": "The chains behind the UniProt entries cited, without tags or fusion partners. Where a name states a change or a piece, a line headed by the entry shows the natural chain unless it says otherwise.", "UniProt P29466": "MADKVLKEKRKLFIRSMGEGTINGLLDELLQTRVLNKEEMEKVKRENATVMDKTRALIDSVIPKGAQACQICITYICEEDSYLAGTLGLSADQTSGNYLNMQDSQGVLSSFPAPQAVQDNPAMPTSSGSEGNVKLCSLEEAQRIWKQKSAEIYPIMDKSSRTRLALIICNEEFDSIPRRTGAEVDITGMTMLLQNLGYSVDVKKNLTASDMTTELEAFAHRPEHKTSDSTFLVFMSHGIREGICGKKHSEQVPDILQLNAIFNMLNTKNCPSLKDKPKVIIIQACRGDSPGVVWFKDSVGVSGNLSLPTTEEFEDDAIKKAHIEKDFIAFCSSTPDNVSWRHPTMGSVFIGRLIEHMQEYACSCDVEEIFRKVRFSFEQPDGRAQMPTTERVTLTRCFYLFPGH"},
  "source": "PubChem BioAssay AID900",
  "about": "(National Center for Advancing Translational Sciences (NCATS), 2007)",
  "note": "Where “and” joins values, the source holds several entries; their conditions need not be identical. Equal entries are not always repeated. This list holds what a sample rich in hits left over. Calls of active or inactive are those of the source. Calls follow the shape of the dose curve; as a rule, active = well fitted inhibition curve with a large enough effect; inconclusive = small, poorly fitted or top-dose-only effect; inactive = flat fitted curve, though single readings scatter.",
  "data": [
    {"biological_target": "Caspase-1 (Homo sapiens) (UniProt P29466)", "assay": "qHTS Assay for Allosteric/Competitive Inhibitors of Caspase-1;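 also: plate controls were vehicle for no effect and no substrate for full effect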", "conditions": "Caspase-1 enzyme, Ac-WEHD-AFC fluorogenic rate; at 25.7 µM (top of the series) unless noted", "source_text": "NIH Molecular Libraries Screening Centers Network [MLSCN]\nNIH Chemical Genomics Center [NCGC]\nPI Name: Dr. James Wells,\nDr. Enrique Perez-Paya, Dr.Janice Williams, Dr. Dennis Wolan, a person\nThe caspases (Cysteine Aspartyl Protease) comprise a related family of 14 dimeric proteases that are critical mediators of apoptosis (programmed cell death) and inflammation. The caspases represent an important class of drug targets for stroke, ischemia, cancer and inflammatory diseases. […] One goal of this project was to identify compounds that act as allosteric inhibitors via stabilizing the procaspase form of the enzyme. Previous work in Well's laboratory has shown that such allosteric inhibitors can be identified and these act by binding at the dimer interface of enzyme (Hardy, Lam et al., 2004).\nThe biochemical assay was configured using purified caspase 1 at a high enzyme concentration to promote formation of the homodimers and thus facilitate the identification of allosteric inhibitors. […] After initiation of the assay with substrate the plates were rapidly read using an automated robotic system (Kalypsys, Inc.) to maintain consistent timing. […]\nCaspase 1 was prepared in buffer (50 mM HEPES pH 7.5, 50 mM KCl, 200 mM NaCl, 10 mM DTT, 0.1% CHAPS) at a concentration of 66.6 nM and 3 uL was dispensed to all wells using black solid Kalypsys 1536-well plates. […] The plates were then exposed using 405 nm excitation/520 nm emission filters for 4 sec and read at 20 sec intervals for 3 min. […]\nConcentration-response curves were fitted to the data calculated from slope of the linear regression of fluorescent intensity versus time (the rate). The concentration-effect curves were then classified based on curve quality (r2), response magnitude and degree of measured activity. […] Inconclusive compounds had appreciable concentration-dependent effects on both the measured rate and the interpolated basal fluorescence intensity at the start of the reaction but where the basal fluorescent intensity was marginal (e.g. < 10-fold). […]", "values": [
      {"smiles": "CCCCCCc1ccc(O)cc1O", "activity change, negative = inhibition": "inactive: -2.33% [at 57.5 µM]"},
      {"smiles": "COC(=O)C1=CO[C@@H](C)[C@H]2CN3CCc4c([nH]c5ccccc45)[C@@H]3C[C@H]12", "activity change, negative = inhibition": "inactive: -2.48% and inactive: -11.3%"},
      {"smiles": "COc1ccc2c3c([nH]c2c1)[C@H]1C[C@@H]2[C@@H](C[C@@H](O)[C@H](OC)[C@H]2C(=O)O)CN1CC3", "activity change, negative = inhibition": "inactive: -9.03% [at 11.5 µM]"}
    ]}
  ]
}
